For this test, the target named is Human immunodeficiency virus type 1 protease (Human immunodeficiency virus 1, UniProt Q72874). The test is described as follows: Inhibitory activity against HIV protease.

Turning to `Cc1cccc(C)c1OCC(=O)N[C@@H](Cc1ccccc1)[C@@H](O)C[C@H](Cc1ccccc1)NC(=O)[C@H](C(C)C)N1CCCNC1=O` [LOPINAVIR], the affinity, expressed as Ki, was 1.3 pM.

The term Ki denotes the dissociation constant of the complex between target and ligand, obtained from inhibition or displacement. A lower Ki goes with tighter binding.

The values are drawn from ChEMBL document CHEMBL1134073, “Synthesis and antiviral activities of the major metabolites of the HIV protease inhibitor ABT-378 (Lopinavir)” (Bioorg Med Chem Lett, 2001).
